According to patent US10653796B2, “Liposomes containing cell penetrating peptides and tetraetherlipids for the oral delivery of macromolecules” (Universität Heidelberg, priority 2015, dated 2020):

Assay: Radioactivity at determined time points after oral application of radiolabeled substances
Type: in vivo
Details: radiolabeled substance

Insulin [reference compound]
mucosal uptake by the liposomal formulations: strongly enhanced mucosal uptake
